Measurements reported in patent US9284358B2 (UNIVERSITY OF UTAH RESEARCH FOUNDATION, priority 2006, dated 2016).
pIC50: −log10 of the molar value.

Sequences of proteins named here, by UniProt entry; tags and fusion partners are left off. Residues count along the entry.
UniProt P43144, 26-479 limits assumed: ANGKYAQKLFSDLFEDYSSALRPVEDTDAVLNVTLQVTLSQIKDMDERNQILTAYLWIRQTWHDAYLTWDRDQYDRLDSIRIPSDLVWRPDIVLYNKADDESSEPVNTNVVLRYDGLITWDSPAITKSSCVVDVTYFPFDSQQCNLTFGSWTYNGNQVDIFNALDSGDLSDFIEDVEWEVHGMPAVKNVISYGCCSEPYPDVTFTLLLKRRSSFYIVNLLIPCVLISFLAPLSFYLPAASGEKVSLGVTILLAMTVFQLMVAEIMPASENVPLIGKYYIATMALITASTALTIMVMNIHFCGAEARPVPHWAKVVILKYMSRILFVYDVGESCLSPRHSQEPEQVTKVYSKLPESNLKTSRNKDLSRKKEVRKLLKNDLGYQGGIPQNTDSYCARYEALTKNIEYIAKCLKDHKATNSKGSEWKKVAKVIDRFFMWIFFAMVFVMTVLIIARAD
UniProt Q9JLB5, 25-447 limits assumed: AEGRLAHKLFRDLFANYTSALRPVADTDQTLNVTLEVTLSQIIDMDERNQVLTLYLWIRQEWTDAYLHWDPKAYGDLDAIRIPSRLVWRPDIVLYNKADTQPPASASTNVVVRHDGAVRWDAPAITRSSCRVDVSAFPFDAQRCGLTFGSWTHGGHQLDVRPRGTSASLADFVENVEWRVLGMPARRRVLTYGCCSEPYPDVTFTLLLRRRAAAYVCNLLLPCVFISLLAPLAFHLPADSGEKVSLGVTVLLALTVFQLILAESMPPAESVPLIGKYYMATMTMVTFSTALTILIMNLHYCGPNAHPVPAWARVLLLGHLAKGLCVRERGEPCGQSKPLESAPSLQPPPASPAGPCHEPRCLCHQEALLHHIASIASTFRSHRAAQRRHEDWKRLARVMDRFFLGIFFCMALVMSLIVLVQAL
UniProt Q9GZZ6, 25-450: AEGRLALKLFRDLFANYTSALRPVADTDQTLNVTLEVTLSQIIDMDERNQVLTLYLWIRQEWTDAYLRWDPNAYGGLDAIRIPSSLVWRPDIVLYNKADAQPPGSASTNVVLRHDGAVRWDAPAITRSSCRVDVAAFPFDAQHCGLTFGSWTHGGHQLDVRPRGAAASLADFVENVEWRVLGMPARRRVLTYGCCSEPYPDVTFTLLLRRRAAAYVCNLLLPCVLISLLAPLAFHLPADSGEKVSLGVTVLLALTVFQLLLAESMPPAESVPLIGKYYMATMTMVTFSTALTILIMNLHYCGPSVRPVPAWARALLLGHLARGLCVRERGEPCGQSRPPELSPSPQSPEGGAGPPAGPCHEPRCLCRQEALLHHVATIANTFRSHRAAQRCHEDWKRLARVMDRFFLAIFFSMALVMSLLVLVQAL
UniProt Q9UGM1, 26-479 limits assumed: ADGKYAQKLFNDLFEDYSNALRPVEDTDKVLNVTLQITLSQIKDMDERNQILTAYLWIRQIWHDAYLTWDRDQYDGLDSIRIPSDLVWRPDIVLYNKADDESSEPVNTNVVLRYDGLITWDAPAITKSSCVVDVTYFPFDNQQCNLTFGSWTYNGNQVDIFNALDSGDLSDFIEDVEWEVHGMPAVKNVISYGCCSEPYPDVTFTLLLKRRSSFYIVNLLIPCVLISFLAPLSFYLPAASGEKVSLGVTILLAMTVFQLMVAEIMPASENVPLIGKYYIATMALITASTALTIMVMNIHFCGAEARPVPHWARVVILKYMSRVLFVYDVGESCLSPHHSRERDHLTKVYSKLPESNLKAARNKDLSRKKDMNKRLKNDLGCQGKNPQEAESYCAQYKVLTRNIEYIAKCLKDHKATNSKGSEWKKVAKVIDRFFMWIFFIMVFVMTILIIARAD

biological target: T1, α9α10 nAChR (Rattus norvegicus, UniProt P43144+Q9JLB5); experiment: cell-based
T1 construct: expressed in transfected cells; host or cells: oocytes

First: N=C(N)NCCC[C@H](NC(=O)[C@@H]1CSSC[C@@H]2NC(=O)[C@@H](NC(=O)CN)CSSC[C@H](NC(=O)[C@H](CCCNC(=N)N)NC(=O)[C@@H]3CCCN3C(=O)[C@H](CC(=O)O)NC(=O)[C@H](CO)NC2=O)C(=O)N[C@@H](CCCNC(=N)N[N+](=O)[O-])C(=O)N[C@@H](Cc2ccc(O)cc2)C(=O)N[C@@H](CCCNC(=N)N)C(=O)N1)C(=O)O [SEQ ID NO:10]
Second: N=C(N)NCCC[C@H](NC(=O)[C@@H]1CSSC[C@@H]2NC(=O)[C@@H](NC(=O)CN)CSSC[C@H](NC(=O)[C@H](CCCNC(=N)N)NC(=O)[C@@H]3CCCN3C(=O)[C@H](CC(=O)O)NC(=O)[C@H](CO)NC2=O)C(=O)N[C@@H](CCCNC(=N)N[N+](=O)[O-])C(=O)N[C@@H](Cc2ccc(O)c(I)c2)C(=O)N[C@@H](CCCNC(=N)N)C(=O)N1)C(=O)O [SEQ ID NO:19]
The pIC50 of the first is 0.25 log units lower: 8.64 for the first, 8.89 for the second. The second is the more potent here.

`N=C(N)NCCC[C@H](NC(=O)[C@@H]1CSSC[C@@H]2NC(=O)[C@@H](NC(=O)CN)CSSC[C@H](NC(=O)[C@H](CCCNC(=N)N)NC(=O)[C@@H]3CCCN3C(=O)[C@H](CC(=O)O)NC(=O)[C@H](CO)NC2=O)C(=O)N[C@@H](CCCN)C(=O)N[C@@H](Cc2ccc(O)cc2)C(=O)N[C@@H](CCCNC(=N)N)C(=O)N1)C(=O)O` [SEQ ID NO:12] and `CC(=O)NCCC[C@@H]1NC(=O)[C@@H]2CSSC[C@H](NC(=O)CN)C(=O)N[C@@H](CSSC[C@@H](C(=O)N[C@@H](CCCNC(=N)N)C(=O)O)NC(=O)[C@H](CCCNC(=N)N)NC(=O)[C@H](Cc3ccc(O)cc3)NC1=O)C(=O)N[C@@H](CO)C(=O)N[C@@H](CC(=O)O)C(=O)N1CCC[C@H]1C(=O)N[C@@H](CCCNC(=N)N)C(=O)N2` [SEQ ID NO:13] cannot be ordered by pIC50: < 6.00 for the first, < 6.00 for the second.

Going from `N=C(N)NCCC[C@H](NC(=O)[C@@H]1CSSC[C@@H]2NC(=O)[C@@H](NC(=O)CN)CSSC[C@H](NC(=O)[C@H](CCCNC(=N)N)NC(=O)[C@@H]3CCCN3C(=O)[C@H](CC(=O)O)NC(=O)[C@H](CO)NC2=O)C(=O)N[C@@H](CCCNC(=N)N)C(=O)N[C@@H](Cc2ccc(O)c(I)c2)C(=O)N[C@@H](CCCNC(=N)N)C(=O)N1)C(=O)O` [SEQ ID NO:15] to `N=C(N)NCCC[C@H](NC(=O)[C@@H]1CSSC[C@@H]2NC(=O)[C@@H](NC(=O)CN)CSSC[C@H](NC(=O)[C@H](CCCNC(=N)N)NC(=O)[C@@H]3CCCN3C(=O)[C@H](CC(=O)O)NC(=O)[C@H](CO)NC2=O)C(=O)N[C@@H](CCCNC(N)=O)C(=O)N[C@@H](Cc2ccc(O)c(I)c2)C(=O)N[C@@H](CCCNC(=N)N)C(=O)N1)C(=O)O` [SEQ ID NO:18], the pIC50 rises from 8.46 to 8.96 (0.50 log units). The second is the more potent here.

biological target: T2, human α9α10 nAChR (Homo sapiens, UniProt Q9GZZ6+Q9UGM1); experiment: cell-based
T2 construct: expressed in transfected cells; host or cells: oocytes

Compared with `N=C(N)NCCC[C@H](NC(=O)[C@@H]1CSSC[C@@H]2NC(=O)[C@@H](NC(=O)CN)CSSC[C@H](NC(=O)[C@H](CCCNC(=N)N)NC(=O)[C@@H]3CCCN3C(=O)[C@H](CC(=O)O)NC(=O)[C@H](CO)NC2=O)C(=O)N[C@@H](CCCN)C(=O)N[C@@H](Cc2ccc(O)cc2)C(=O)N[C@@H](CCCNC(=N)N)C(=O)N1)C(=O)O` [SEQ ID NO:12], `N=C(N)NCCC[C@H](NC(=O)[C@@H]1CSSC[C@@H]2NC(=O)[C@@H](NC(=O)CN)CSSC[C@H](NC(=O)[C@H](CCCNC(=N)N)NC(=O)[C@@H]3CCCN3C(=O)[C@H](CC(=O)O)NC(=O)[C@H](CO)NC2=O)C(=O)N[C@@H](CCCNC(=N)N)C(=O)N[C@@H](Cc2ccc(O)c(I)c2)C(=O)N[C@@H](CCCNC(=N)N)C(=O)N1)C(=O)O` [SEQ ID NO:41] is higher in pIC50: < 6.00 for the first, 6.97 for the second.

`C[C@@H](O)[C@@H]1NC(=O)[C@@H]2CSSC[C@@H](C(=O)N[C@@H](CCCNC(=N)N)C(=O)O)NC(=O)[C@H](CCC(N)=O)NC(=O)[C@H](Cc3ccc(O)c(I)c3)NC(=O)[C@H](CCCNC(N)=O)NC(=O)[C@H](C[Se][Se]C[C@H](NC(=O)CN)C(=O)N2)NC(=O)[C@H](CCCNC(=N)N)NC(=O)[C@@H]2CCCN2C(=O)[C@H](CC(=O)O)NC1=O` [SEQ ID NO:28] and `CC(C)C[C@H](NC(=O)[C@@H]1CSSC[C@@H]2NC(=O)[C@@H](NC(=O)CN)C[Se][Se]C[C@H](NC(=O)[C@H](CCCNC(=N)N)NC(=O)[C@@H]3CCCN3C(=O)[C@H](CC(=O)O)NC(=O)[C@H]([C@@H](C)O)NC2=O)C(=O)N[C@@H](CCCNC(N)=O)C(=O)N[C@@H](Cc2ccc(O)c(I)c2)C(=O)N[C@@H](CCC(N)=O)C(=O)N1)C(=O)O` [SEQ ID NO:29] are within 0.2 log units of each other in pIC50: 7.06 for the first, 6.87 for the second.

Going from `N=C(N)NCCC[C@H](NC(=O)[C@@H]1CSSC[C@@H]2NC(=O)[C@@H](NC(=O)CN)C[Se][Se]C[C@H](NC(=O)[C@H](CCCNC(=N)N)NC(=O)[C@@H]3CCCN3C(=O)[C@H](CC(=O)O)NC(=O)[C@H](CO)NC2=O)C(=O)N[C@@H](CCCNC(=N)N)C(=O)N[C@@H](Cc2ccc(O)cc2)C(=O)N[C@@H](CCCNC(=N)N)C(=O)N1)C(=O)O` [SEQ ID NO:30] to `N=C(N)NCCC[C@H](NC(=O)[C@@H]1CSSC[C@@H]2NC(=O)[C@@H](NC(=O)CN)CSSC[C@H](NC(=O)[C@H](CCCNC(=N)N)NC(=O)[C@@H]3CCCN3C(=O)[C@H](CC(=O)O)NC(=O)[C@H](CO)NC2=O)C(=O)N[C@@H](CCCNC(N)=O)C(=O)N[C@@H](Cc2ccc(O)c(I)c2)C(=O)N[C@@H](CCCNC(=N)N)C(=O)N1)C(=O)O` [SEQ ID NO:43], the pIC50 rises from 6.62 to 7.34 (0.72 log units).
